Reference: patent US20050137220A1 (Pharmacia Corporation, priority 2003, published 2005)

Chains of the proteins cited; added tags and fusions are not shown.
UniProt P49137, whole entry, species assumed: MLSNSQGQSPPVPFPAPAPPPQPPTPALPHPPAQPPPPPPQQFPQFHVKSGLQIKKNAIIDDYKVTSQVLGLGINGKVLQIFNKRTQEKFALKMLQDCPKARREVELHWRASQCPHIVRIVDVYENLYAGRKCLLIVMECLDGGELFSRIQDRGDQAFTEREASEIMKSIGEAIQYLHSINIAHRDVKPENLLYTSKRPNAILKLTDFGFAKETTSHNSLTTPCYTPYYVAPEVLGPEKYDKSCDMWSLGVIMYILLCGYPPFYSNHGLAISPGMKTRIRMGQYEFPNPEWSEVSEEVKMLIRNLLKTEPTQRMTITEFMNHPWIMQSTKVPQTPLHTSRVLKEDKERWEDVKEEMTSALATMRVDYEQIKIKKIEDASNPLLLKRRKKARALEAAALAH

molecular target: MK-2 (Homo sapiens, UniProt P49137); experiment: Determination of MK-2 IC50 (phosphorylation of HSP-peptide, anion exchange resin capture assay); type: biochemical; conditions: additional values are replicate IC50 experiments; mixture of stereoisomers implied unless otherwise noted

In order of falling IC50:
1. COC(=O)C1c2[nH]c3ccc(OC)cc3c2CCN1C (stereo not drawn) [Example 149, methyl 6-methoxy-2-methyl-2,3,4,9-tetrahydro-1H-beta-carboline-1-carboxylate]  149 µM
2. COC(=O)C1c2[nH]c3ccc(O)cc3c2CCN1C (stereo not drawn) [Example 150, methyl 6-hydroxy-2-methyl-2,3,4,9-tetrahydro-1H-beta-carboline-1-carboxylate]  149 µM
3. CSc1ccc2[nH]c3c(c2c1)C1CCN(C1)C3C(=O)O (stereo not shown) [Example 50]  7.01 µM
4. COc1ccc2[nH]c3c(c2c1)CC(CN)NC3=O (stereo not shown)  1.32 µM
